Our source for the IC50 values is patent US20040146519A1, “Inducing cellular immune responses to carcinoembryonic antigen using peptide and nucleic acid compositions” (priority 2002, published 2004).

Conditions in all cases: remark: other sources report otherwise
One test concerns the target HLA-A*1101 (human). Nature of the test: competition with 125I probe peptide for purified HLA.
The target in the next test is HLA-A*3301 (human). The description is as above.
The target of a further test is HLA-A*6801 (human). Described as above.
The target of another test is HLA-B*5101 (human). Nature of the test: inhibition of 125I probe peptide, purified HLA.
For another test, the target named is HLA-B*5301 (human). As to the kind of experiment: inhibition of 125I probe peptide, purified HLA.
Another test deals with HLA-A*0101 (human). As to the kind of experiment: inhibition of 125I probe peptide, purified HLA.
The target of the next test is HLA-B*0702 (human). As to the kind of experiment: inhibition of 125I probe peptide, purified HLA.
Another test has as its target HLA-B*3501 (human). Nature of the test: inhibition of 125I probe peptide, purified HLA.

In the case of RVLTLFNVTR [CEA.554.V2], the half-inhibitory concentration (IC50) with HLA-A*1101 (human) was determined as 94 nM; with HLA-A*3301 (human) it was 7630 nM; with HLA-A*6801 (human), 42 nM.
LPQHLFGYSI [CEA.58.I10] had an IC50 in the test with HLA-B*5101 (human) of 262 nM.
Consider RTLTLFNVTR [CEA.554], for which the IC50 with HLA-A*3301 (human) was determined as 1610 nM.
For IPWQRLLLTA [CEA.13, 10 AA], the IC50 with HLA-B*5101 (human) turned out to be 2120 nM; in the test with HLA-B*5301 (human), 2660 nM.
In turn, IPWQRLLLTI [CEA.13.I10] registered an IC50 in the test with HLA-B*5301 (human) of 291 nM.
Take PTISPSYTYY [CEA.418, 10 AA]: in the test with HLA-A*0101 (human), the IC50 came out at 325 nM.
For the molecule YPNASLLI [CEA.102], the IC50 with HLA-B*0702 (human) is 196 nM; with HLA-B*3501 (human), 514 nM; in the test with HLA-B*5101 (human) it was 8.1 nM.
Consider HSASNPSPQY [CEA.616], for which the IC50 with HLA-A*0101 (human) came out at 74 nM.
